Our source for the reporter increase values is PubChem BioAssay AID602393 (Broad Institute, 2012).

Only a part is listed here, and it is no random draw. Some structures show a salt or complex split into parts, the way the source records it. Active and inactive are the calls of the source. No stated cut-off is given here; in the data, active means activation above about 40%; inconclusive means no clear call, values can overlap the other calls; inactive means below that.

The test in a line: Bmi1 luciferase reporter increase in mESCs, primary screen, esBAF inhibitor project, mouse ES cells, Bmi1 luciferase knock-in, single point (AID 602393).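 Further: 0% = median of the plate's neutral control wells and 100% = double that signal; a rise in the Bmi1 reporter signal indicates esBAF inhibition.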 Particulars: 24 h, at 12.5 µM, active compounds read high, 100% = twice the neutral-well signal.
Take `CN(Cc1cccnc1)C(=O)COc1ccc(Cl)c(Cl)c1.O=[N+]([O-])c1cc([N+](=O)[O-])c(O)c([N+](=O)[O-])c1`: the reporter increase was inactive: -7.04%. To `O=[N+]([O-])c1cc([N+](=O)[O-])c(-n2nnc3ccccc32)c([N+](=O)[O-])c1` belongs inactive: -4.2%; to `Cc1nc2ccc3ccccc3c2s1.O=[N+]([O-])c1cc([N+](=O)[O-])c(O)c([N+](=O)[O-])c1`, inactive: 16.9%; to `O=[N+]([O-])c1cc([N+](=O)[O-])c(Nc2nnnn2CCO)c([N+](=O)[O-])c1`, inactive: 6.9%. For the molecule `CC1=C2N=C(C=C3N=C(C(C)=C4[N-][C@@](C)([C@@H]5N=C1[C@](C)(CCC(=O)NC[C@@H](C)OP(=O)([O-])O[C@H]1[C@@H](O)[C@@H](n6cnc7cc(C)c(C)cc76)O[C@@H]1CO)[C@H]5CC(N)=O)[C@@](C)(CC(N)=O)[C@@H]4CCC(N)=O)[C@@](C)(CC(N)=O)[C@@H]3CCC(N)=O)C(C)(C)[C@@H]2CCC(N)=O.[C-]#N.[Co+3]`, the reporter increase was inactive: -17.3%. The result for `CCCOc1ccc(NP(C)(=O)Oc2ccc(Cl)cc2)cc1` (stereo not given) reads inactive: -3.94%. Take `CN1CCCCC1COC(=O)C1(O)c2ccccc2CCc2ccccc21` (stereo not given): the reporter increase is inactive: 11.2%.

As for `COc1ccccc1OP(C)(=O)Nc1c(C)cccc1C` (stereo not given), the reporter increase is inactive: -6.87%.

`O=C(O)c1cccc(Nc2c([N+](=O)[O-])cc([N+](=O)[O-])cc2[N+](=O)[O-])c1`: the reporter increase is inactive: -9.87%. To `CC1=NCCc2c1[nH]c1ccccc21.O=[N+]([O-])c1cc([N+](=O)[O-])c(O)c([N+](=O)[O-])c1` belongs inactive: -5.05%; to `Cc1cc(C)cc(OP(C)(=O)Nc2ccc(C)cc2C)c1` (stereo not given), inactive: 4.64%. Turning to `COc1ccccc1OP(C)(=O)Nc1cccc(Br)c1` (stereo not given), the reporter increase is inactive: 2.8%.

As to `Cc1ccc(C)c(NP(C)(=O)Oc2ccccc2)c1` (stereo not given), the reporter increase is inactive: -3.25%. To `Cc1cc(C)cc(OP(C)(=O)Nc2ccccn2)c1` (stereo not given) belongs inactive: -1.58%; to `O=[N+]([O-])c1cc([N+](=O)[O-])c(Nc2cccnc2)c([N+](=O)[O-])c1`, inactive: -2.84%. The result for `Cc1cc(C)cc(OP(C)(N)=O)c1` (stereo not given) reads inactive: -4.11%. To `COc1ccccc1OP(C)(=O)Nc1cc(Cl)ccc1C` (stereo not given) belongs inactive: -6.4%; to `COc1ccc(OP(C)(=O)Nc2cccc(F)c2)cc1` (stereo not given), inactive: -17.2%; to `Cc1ccc(NP(C)(=O)Oc2ccccc2)c(C)c1` (stereo not given), inactive: -1.99%. As for `CCOC(=O)c1ccc(NP(C)(=O)Oc2ccccc2)cc1` (stereo not given), the reporter increase was inactive: -3.94%. To `CP(=S)(Nn1cnnc1)Oc1ccccc1` (stereo not given) belongs inactive: -4.34%; to `CP(=O)(NC(=O)Nc1ccccc1)Oc1ccccc1` (stereo not given), inactive: 6.09%. Turning to `Cc1ccc(Nc2c([N+](=O)[O-])cc([N+](=O)[O-])cc2[N+](=O)[O-])cc1`, the reporter increase was inactive: -9.44%. To `CP(=O)(Oc1ccccc1)OC(c1ccccc1)C(F)(F)F` (stereo not given) belongs inactive: 0.968%; to `CP(=O)(Nc1ccccn1)Oc1ccc(Cl)cc1` (stereo not given), inactive: 7.68%; to `CCOP(C)(=S)SCC(=O)NC(C)C(=O)O` (stereo not given), inactive: -1.57%. The result for `COc1ccccc1OP(C)(=O)Nc1c(C)n(C)n(-c2ccccc2)c1=O` (stereo not given) reads inactive: -5.75%; that for `O=C(OCCCN1CCCC1)C(O)(c1ccccc1)C1CCCCC1` (stereo not given), inactive: -4.9%; that for `CP(=O)(Oc1ccccc1)N1CCOC1=O` (stereo not given), inactive: 4.16%. `CCc1ccc(OP(C)(=O)Nc2cccnc2)cc1` (stereo not given): the reporter increase was inactive: -8.39%. To `COc1ccc(OP(C)(=O)Nc2ccc(Br)cc2)cc1` (stereo not given) belongs inactive: -4.57%; to `CC(C)(C)c1ccc(OP(C)(=O)O)cc1`, inactive: -1.92%.

Consider `COc1ccccc1OP(C)(=O)Nc1ccccc1Br` (stereo not given), for which the reporter increase is inactive: -6.4%. The result for `CP(=O)(Nc1ccc(Cl)cc1)Oc1ccc(F)cc1` (stereo not given) reads inactive: -5.17%; that for `CP(=O)(OC12CC3CC(CC(C3)C1)C2)OC12CC3CC(CC(C3)C1)C2`, inactive: 1.76%. The result for `COc1ccccc1OP(C)(=O)Nc1ccc(C)c(C)c1` (stereo not given) reads inactive: 1.71%; that for `CP(=O)(Nc1ccc(Cl)cc1Cl)Oc1ccccc1` (stereo not given), inactive: 1.62%; that for `COc1ccc(OP(C)(=O)Nc2ccccn2)cc1` (stereo not given), inactive: -0.799%. To `CN(C)CCOC(=O)C(O)(c1ccccc1)C1CCCC1` (stereo not given) belongs inactive: -7.18%.

On to `COc1ccccc1OP(C)(=O)Nc1ccc(Br)cc1` (stereo not given), for which the reporter increase was inactive: -1.73%.

Regarding `CP(=O)(Nc1ccccn1)Oc1ccccc1` (stereo not given), the reporter increase was inactive: -6.41%. The result for `COc1ccccc1OP(C)(=O)Nc1ccc(C)cc1C` (stereo not given) reads inactive: -1.1%; that for `CCc1ccc(OP(C)(=O)O)cc1`, inactive: -5.6%; that for `O=[N+]([O-])c1cc([N+](=O)[O-])c(Nc2ccccn2)c([N+](=O)[O-])c1`, inactive: -9.36%. For `Cc1c(NP(C)(=O)Oc2ccc(C(C)C)cc2)c(=O)n(-c2ccccc2)n1C` (stereo not given), the reporter increase was inactive: -2.64%. To `CP(=O)(Nc1ccccc1F)Oc1ccccc1` (stereo not given) belongs inactive: 0.347%; to `O=[N+]([O-])c1cc([N+](=O)[O-])c(Nc2ccc(Cl)cc2)c([N+](=O)[O-])c1`, inactive: -30.7%. `COc1ccc2c(c1O)-c1c(O)c(OC)cc3c1[C@H](C2)[N+](C)(C)CC3.O=[N+]([O-])c1cc([N+](=O)[O-])c([O-])c([N+](=O)[O-])c1[O-]`: the reporter increase is inactive: 11.6%. Turning to `CP(=O)(Nc1ccccc1)Oc1ccc(F)cc1` (stereo not given), the reporter increase was inactive: -7.2%. To `O=[N+]([O-])c1cc([N+](=O)[O-])c(OC2CCCCC2O)c([N+](=O)[O-])c1` (stereo not given) belongs inactive: 8.17%.

With `Cc1c([N+](=O)[O-])cc([N+](=O)[O-])c(Br)c1[N+](=O)[O-]`, the reporter increase was inactive: -0.0075%.

On to `COc1ccc(NP(C)(=O)Oc2ccccc2OC)cc1` (stereo not given), for which the reporter increase is inactive: 3.77%.

As for `COc1ccc(OP(C)(=O)Nc2cccc(Br)c2)cc1` (stereo not given), the reporter increase is inactive: 11.7%. The result for `Cc1c(C(c2ccc3c(c2)OCO3)c2c(C)n(C)n(-c3ccccc3)c2=O)c(=O)n(-c2ccccc2)n1C.O=[N+]([O-])c1cc([N+](=O)[O-])c(O)c([N+](=O)[O-])c1` reads inactive: -4.08%; that for `O=[N+]([O-])c1ccc(OP2(=O)COCCO2)cc1` (stereo not given), inactive: -3.75%. The result for `Cc1cc(-c2cccc3ccccc23)c(C)cn1.O=[N+]([O-])c1cc([N+](=O)[O-])c(O)c([N+](=O)[O-])c1` reads inactive: 9.32%.

As to `CCOP(C)(=S)SCC(=O)NC(C)(CC)C(=O)O` (stereo not given), the reporter increase was inactive: -2.9%.

Regarding `CP(=O)(Nc1ccc(SC(F)(F)F)cc1)Oc1ccc(F)cc1` (stereo not given), the reporter increase is inactive: 5.31%. The result for `Cc1ccccc1NP(C)(=O)Nc1ccccc1C` reads inactive: -0.662%. The result for `CP(=O)(Nc1ccc2c(c1)OCCO2)Oc1ccccc1` (stereo not given) reads inactive: -1.51%.
